In PubChem BioAssay (NCI):
This is a selection; strong and weak results do not stand in their true shares.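 A percent growth of 40 corresponds to 60% growth inhibition; 0 means no net growth; -100 means all cells died. Active threshold: below 10.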 The source made the active and inactive calls.

How the values were obtained:
Test in all cases: NCI-60 one-dose screen, 48 h (100 = growth as untreated, 0 = no growth, -100 = all killed)
Conditions in all cases: 10 µM unless noted
NCI-H23 lung = tested on: NCI-H23 lung
NCI-H226 lung = tested on: NCI-H226 lung
NCI-H322M lung = tested on: NCI-H322M lung
HOP-62 NSCLC = tested on: HOP-62 NSCLC
NCI-H460 lung = tested on: NCI-H460 lung
NCI-H522 lung = tested on: NCI-H522 lung
A549/ATCC NSCLC = tested on: A549/ATCC NSCLC
786-0 renal = tested on: 786-0 renal
COLO 205 colon = tested on: COLO 205 colon
DU-145 prostate = tested on: DU-145 prostate
K-562 leukemia = tested on: K-562 leukemia
MALME-3M melanoma = tested on: MALME-3M melanoma
MDA-MB-231 breast = tested on: MDA-MB-231 breast
RXF 393 renal = tested on: RXF 393 renal
SF-268 CNS = tested on: SF-268 CNS
SF-295 CNS = tested on: SF-295 CNS
UACC-257 melanoma = tested on: UACC-257 melanoma
M14 melanoma = tested on: M14 melanoma
SF-539 CNS = tested on: SF-539 CNS

Measured: growth

O=P1(N(CCCl)CCCl)Nc2ccccc2N1
inactive: NCI-H23 lung 99% | NCI-H226 lung 99.6% | NCI-H322M lung 109% | HOP-62 NSCLC 113% | NCI-H460 lung 115% | NCI-H522 lung 117% | A549/ATCC NSCLC 112% | 786-0 renal 111% | COLO 205 colon 123% | DU-145 prostate 112% | K-562 leukemia 107% | MALME-3M melanoma 109% | MDA-MB-231 breast 107% | RXF 393 renal 111% | SF-268 CNS 108% | SF-295 CNS 124% | UACC-257 melanoma 112% | M14 melanoma 119%

Cc1cc(C)cc(OP(=O)(Cl)Oc2cc(C)cc(C)c2)c1
inactive: NCI-H23 lung 96.2% | NCI-H226 lung 101% | NCI-H322M lung 96.8% | HOP-62 NSCLC 99.9% | NCI-H460 lung 107% | NCI-H522 lung 105% | A549/ATCC NSCLC 118% | 786-0 renal 109% | COLO 205 colon 118% | DU-145 prostate 119% | K-562 leukemia 99.1% | MALME-3M melanoma 105% | MDA-MB-231 breast 104% | RXF 393 renal 118% | SF-268 CNS 113% | SF-295 CNS 101% | SF-539 CNS 110% | UACC-257 melanoma 83.5%

O=[As]c1ccc(S(=O)(=O)Nc2ccccc2)cc1 (configuration not stated)
active: NCI-H522 lung -64% | COLO 205 colon -31.2% | K-562 leukemia -16.2% | MALME-3M melanoma -65.9% | RXF 393 renal -19.6%
inactive: NCI-H23 lung 70.4% | NCI-H226 lung 92.8% | NCI-H322M lung 106% | HOP-62 NSCLC 110% | NCI-H460 lung 104% | A549/ATCC NSCLC 104% | DU-145 prostate 90.6% | MDA-MB-231 breast 27.3% | SF-268 CNS 62.7% | SF-295 CNS 105% | SF-539 CNS 19.9% | UACC-257 melanoma 19.8% | M14 melanoma 72.1%

NC(=S)N/N=C/c1ccc(N(CCF)CCCl)cc1
inactive: NCI-H23 lung 103% | NCI-H226 lung 89.6% | NCI-H322M lung 106% | HOP-62 NSCLC 83.6% | NCI-H460 lung 97.1% | NCI-H522 lung 90.6% | A549/ATCC NSCLC 86.2% | 786-0 renal 114% | COLO 205 colon 105% | DU-145 prostate 113% | K-562 leukemia 87.6% | MALME-3M melanoma 99.8% | MDA-MB-231 breast 93.4% | RXF 393 renal 101% | SF-268 CNS 118% | SF-295 CNS 95.8% | SF-539 CNS 102% | UACC-257 melanoma 82% | M14 melanoma 103%

ClC(Cl)(Cl)C1SCCS1
inactive: NCI-H23 lung 101% | NCI-H226 lung 109% | NCI-H322M lung 96.8% | HOP-62 NSCLC 115% | NCI-H460 lung 110% | NCI-H522 lung 105% | A549/ATCC NSCLC 97.5% | 786-0 renal 109% | COLO 205 colon 109% | DU-145 prostate 108% | K-562 leukemia 80.6% | MALME-3M melanoma 108% | MDA-MB-231 breast 101% | RXF 393 renal 129% | SF-268 CNS 109% | SF-295 CNS 96.9% | SF-539 CNS 116% | UACC-257 melanoma 86.4% | M14 melanoma 109%

ClCCN1CCNCC1
inactive: NCI-H23 lung 104% | NCI-H226 lung 113% | NCI-H322M lung 113% | HOP-62 NSCLC 113% | NCI-H460 lung 106% | NCI-H522 lung 95.5% | A549/ATCC NSCLC 99.9% | 786-0 renal 102% | COLO 205 colon 106% | DU-145 prostate 117% | K-562 leukemia 102% | MALME-3M melanoma 111% | MDA-MB-231 breast 101% | RXF 393 renal 102% | SF-268 CNS 105% | SF-295 CNS 92.6% | SF-539 CNS 99.8% | UACC-257 melanoma 98.4% | M14 melanoma 98.8%

ClCCN1c2ccccc2Sc2ccccc21
inactive: NCI-H23 lung 94.2% | NCI-H226 lung 104% | NCI-H322M lung 105% | HOP-62 NSCLC 105% | NCI-H460 lung 104% | NCI-H522 lung 98.6% | A549/ATCC NSCLC 99.8% | 786-0 renal 105% | COLO 205 colon 116% | DU-145 prostate 103% | K-562 leukemia 101% | MALME-3M melanoma 100% | MDA-MB-231 breast 115% | RXF 393 renal 106% | SF-268 CNS 97.6% | SF-295 CNS 93.8% | SF-539 CNS 98.1% | UACC-257 melanoma 103% | M14 melanoma 101%

ClCCN1c2ccccc2Oc2ccccc21
inactive: NCI-H23 lung 95.4% | NCI-H226 lung 101% | NCI-H322M lung 100% | HOP-62 NSCLC 100% | NCI-H460 lung 112% | NCI-H522 lung 99% | A549/ATCC NSCLC 101% | 786-0 renal 101% | COLO 205 colon 117% | DU-145 prostate 109% | K-562 leukemia 99.5% | MALME-3M melanoma 99.6% | MDA-MB-231 breast 112% | RXF 393 renal 103% | SF-268 CNS 101% | SF-295 CNS 91.6% | SF-539 CNS 102% | UACC-257 melanoma 103% | M14 melanoma 101%

CN(C)P(=O)(Nc1ccccn1)N(C)C
inactive: NCI-H23 lung 105% | NCI-H226 lung 95.4% | NCI-H322M lung 106% | HOP-62 NSCLC 113% | NCI-H460 lung 109% | NCI-H522 lung 99.5% | A549/ATCC NSCLC 91.1% | 786-0 renal 101% | COLO 205 colon 123% | DU-145 prostate 110% | K-562 leukemia 112% | MALME-3M melanoma 104% | MDA-MB-231 breast 111% | RXF 393 renal 106% | SF-268 CNS 112% | SF-539 CNS 104% | UACC-257 melanoma 86% | M14 melanoma 115%
